In article PMC6073756, “Allicin Bioavailability and Bioequivalence from Garlic Supplements and Garlic Foods” (Nutrients, 2018):
Marks after values point to notes of the source that are not given here.

Tests used:
[1] = Allicin bioavailability or bioequivalence bioassay: 32-h breath allyl methyl sulfide (AMS) concentration curve after consumption; assay type: in vivo, human
[2] = set-up: method as in PMID 25681129; settings: cited from earlier work

Substance: S(+)-allyl-L-cysteine sulfoxide [Alliin, L(+)]
- Time at which breath AMS returned to (near) baseline, zero or undetectable ([1]; in vivo): about 27 h
- Alliin transformed to allicin by bacterial alliinase activity ([1]; inferred from pure alliin): 0–4%
- Time at which breath AMS was first detectable (Tmin) ([1]; low-protein meal): 0.2 h
- Allicin Bioequivalence (TKSA, RRF2) ([1]; low-protein meal, one person (n = 1)): 4.6 ± 0.7 ^c %
- Tmax ([1]; low-protein meal, one person (n = 1), repeated tests, listed as L(+)-alliin): 3 to 3.5 h
- Administered alliin found in blood or urine as SAC or N-acetyl-SAC [2]: less than 0.1%
- Dose found as unidentified compounds [2]: 72%
- Dose found in the urine as N-acetyl-alliin [2]: 22%
- Dose found in the urine as alliin [2]: 6%
